Laboratory results taken from patent US20230312752A1 (Brown University, priority 2021, published 2023).

Tested on: CHI3L1 phosphorylation

For CN1CC[C@H](c2c(O)cc(O)c3c(=O)cc(-c4ccccc4Cl)oc23)[C@H](O)C1 [Flavopiridol], the “degree of phosphorylation changes (comparison of CDK inhibitors)” value was “most prominent changes” and the “serine phosphorylation of CHI3L1” value was “blocked”.
